From PMC6610884 (Journal of medicinal chemistry, 2018)

Legend:
P. berghei blood stages = details: Pb-infected mice, single oral 50 mg/kg dose 1 day PI, compared to untreated animals
P. falciparum TM90-C2B = details: RI = EC50 TM90-C2B/EC50 W2

Row | Compound | % inhibition day 6 PI (P. berghei blood stages) | RI (resistance index) (P. falciparum TM90-C2B)
1 | COC(=O)c1c[nH]c2cc(CN3CCN(Cc4ccc5c(c4)OCO5)CC3)ccc2c1=O [8m, Methyl 7-((4-(Benzo[d][1,3]dioxol-5-ylmethyl)piperazin-1-yl)-methyl)-4-oxo-1,4-dihydroquinoline-3-carboxylate] | no inhibition | –
2 | COC(=O)c1c[nH]c2cc(N3CCN(Cc4ccccc4)CC3)c(OC)cc2c1=O [8h, Methyl 7-(4-Benzylpiperazin-1-yl)-6-methoxy-4-oxo-1,4-dihydroquinoline-3-carboxylate] | no inhibition | –
3 | COC(=O)c1c[nH]c2cc(CCN3CCN(Cc4ccccc4)CC3)ccc2c1=O [8ad, Methyl 7-(2-(4-Benzylpiperazin-1-yl)ethyl)-4-oxo-1,4-dihydroquinoline-3-carboxylate] | no inhibition | –
4 | COC(=O)c1c[nH]c2cc(CN3CCN(Cc4ccccc4)CC3)c(OC)cc2c1=O [8x, Methyl 7-((4-Benzylpiperazin-1-yl)methyl)-6-methoxy-4-oxo-1,4-dihydroquinoline-3-carboxylate] | – | >364
5 | COC(=O)c1c[nH]c2cc(CN3CCN(c4ccc(C(F)(F)F)cc4)CC3)ccc2c1=O [8p, Methyl 4-Oxo-7-((4-(4-(trifluoromethyl)phenyl)piperazin-1-yl)-methyl)-1,4-dihydroquinoline-3-carboxylate] | – | 375
6 | COC(=O)c1c[nH]c2cc(CN3CCN(c4ccc(F)cc4)CC3)c(C)cc2c1=O [8u, Methyl 7-((4-(4-Fluorophenyl)piperazin-1-yl)methyl)-6-methyl-4-oxo-1,4-dihydroquinoline-3-carboxylate] | – | 417
7 | COC(=O)c1c[nH]c2cc(CN3CCN(c4ccc(OC)cc4)CC3)c(C)cc2c1=O [8t, Methyl 7-((4-(4-Methoxyphenyl)piperazin-1-yl)methyl)-6-methyl-4-oxo-1,4-dihydroquinoline-3-carboxylate] | no inhibition | –
8 | Cc1[nH]c2cc(CN3CCN(c4ccc(F)cc4)CC3)ccc2c(=O)c1Br [8an, 3-Bromo-7-((4-(4-Fluorophenyl)piperazin-1-yl)methyl)-2-methylquinolin-4(1H)-one] | – | 1.0
